Patent publication US11541027B2, “Use of dianhydrogalactitol and analogs or derivatives thereof in combination with platinum-containing antineoplastic agents to treat non-small-cell carcinoma of the lung and brain metastases” (DelMar Pharmaceuticals, Inc., priority 2014, dated 2023)

What was measured:
[1] = test system: HCT-116 p53−/− versus p53+/+; assay: Resistance factors in engineered HCT-116 tumor models, p53 knockout; format: cell-based, human; conditions: loss of p53 (p53−/− vs p53+/+)
Text: (§1) FIG. 13 is a graph showing the cytotoxicity of dianhydrogalactitol (“DAG”) and the platinum drugs cisplatin (“cis-Pt”) and oxaliplatin (“Oxali-Pt”) against engineered HCT-116 tumor models in vitro. To better explore dependency of activity on p53 status, the molecularly engineered colorectal HCT-116 models were used. These isogenic models were molecularly engineered to knockout p53 (p53^−/−) or p21 (p21^−/−). The p53^+/+ or p21^+/+ represent the corresponding control. The p53^−/− cell lines are described in J. Boyer et al., “Characterization of p53 Wild-Type and Null Isogenic Colorectal Cell Lines Resistant to 5-Fluorouracil, Oxaliplatin, and Irinotecan,” Clin. Cancer Res. 10: 2158-2167 (2004), incorporated herein by this reference. The p21^−/− cell lines are described in Z. Han et al., “Role of p21 in Apoptosis and Senescence of Human Colon Cancer Cells Treated with Camptothecin,” J. Biol. Chem. 277: 17154-17160 (2002), incorporated herein by this reference. These IC50 values were used to determine resistance of knockout models relative to corresponding controls.
(§2) FIG. 14 is a graph showing the resistance factors for dianhydrogalactitol (“DAG”) and the platinum drugs cisplatin (“cis-Pt”) and oxaliplatin (“Oxali-Pt”) in engineered HCT-116 tumor models in vitro.

[2] = test system: HCT-116 p21−/− versus p21+/+; assay: Resistance factors in engineered HCT-116 tumor models, p21 knockout; format: cell-based, human; conditions: loss of p21 (p21−/− vs p21+/+)
Text: as §1, §2

Substance: dianhydrogalactitol
- resistance of knockout model relative to corresponding control ([1]; listed as DAG): lower
- resistance of knockout model relative to corresponding control ([1]; listed as VAL-083): < 2 fold
- resistance of knockout model relative to corresponding control [2]: non-existent
